AlphaSeq binding of Ab-14 light chain variants to a spike HR2 peptide

Antigen: PDVDLGDISGINAS, a 14-residue peptide of the SARS-CoV-2 spike HR2 region.

Ab-14 is the parent antibody, in scFv form: VH, then three GGGGS repeats, then VL. The heavy chain is unchanged in all variants.
VH: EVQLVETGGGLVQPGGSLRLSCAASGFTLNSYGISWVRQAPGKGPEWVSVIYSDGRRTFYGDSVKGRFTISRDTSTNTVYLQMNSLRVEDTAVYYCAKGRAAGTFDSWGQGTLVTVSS
VL: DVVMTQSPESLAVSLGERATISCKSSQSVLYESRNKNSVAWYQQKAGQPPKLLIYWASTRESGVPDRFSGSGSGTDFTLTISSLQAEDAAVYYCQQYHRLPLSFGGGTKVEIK

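The parent was found by panning a naive human phage display library on the peptide. The variants were designed computationally from a first round of random CDR variants and then made and measured. Several design methods are mixed in this list. The assay is AlphaSeq: two haploid yeast populations carry antibody and antigen on their surface. The frequency of each diploid, read from paired DNA barcodes, reflects how well the two displayed proteins bind. Read counts were normalised to the haploid input and turned into Kd by a linear fit to BCL2-family pairs of known affinity, for each replicate. Each pool was mated in six replicate cultures.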

Variants are written as CDR1, CDR2 and CDR3 of the light chain (limits as in the source). Parent: KSSQSVLYESRNKNSVA, WASTRES, QQYHRLPLS. Variants here have more than six changes. The Kd shown is the geometric mean over detected replicates; a lower Kd is a better binder. A pair that was not seen in any replicate is written "no signal"; this usually means weak binding, but a binder can also be missed. Background: pairings of all light chain designs with three empty control strains gave a value in 4% of cases (median 430 nM, 5th percentile 38 nM). Values in that range, when seen in few replicates, are hard to tell from nonspecific mating. For each scFv, signals with the empty controls are counted beside the result. The authors averaged sequences with at least three values out of six and counted those with two or fewer as poor binders. Of ten entries with the parent sequence, four were seen in most replicates (averages 2.2 nM to 240 nM), three in one and three in none, so single entries are noisy. The range of this assay differs from that of the first round, and the authors advise against merging the two.

CDR-L1,CDR-L2,CDR-L3,Kd (apparent),replicates with signal,signal with controls
KFSQAYMYEQRNKNSVA,NASQRES,QQYHRLPLS,590 pM,6 of 6,1 of 18
TIGGTLMYGMRNRSNVA,EVSERLN,QQYDRLPLI,93 nM,5 of 6,1 of 18
HLSDFLSYGKDLQAAVA,GVQTRMT,QQYARLPLL,2.2 nM,6 of 6,3 of 18
KIMQSEYYEDRNKMSVA,SASQRLS,QQYHRLPLS,2.6 nM,6 of 6,3 of 18
HMSMLTLSGMRHRNSVA,QMTTREN,QQYDRLPLA,300 nM,4 of 6,1 of 18
KISQMSTIESIQHNSVA,QTSTRES,QQYDRLPLS,7.6 nM,6 of 6,1 of 18
KVSEFMRGLMRRQDSIA,DNETRSN,QQYDRLPLS,36 nM,6 of 6,1 of 18
TISQMSTLFSQSINNVA,EVSTRLV,QQYDRLPLM,19 nM,6 of 6,1 of 18
QLGAVTDMTSKNKNSVA,EQSTREN,QQYHRLPLS,1.1 nM,6 of 6,0 of 18
KLSMITGHMQQSKNNVA,EMVTREN,QQYERLPLS,4.2 nM,6 of 6,1 of 18
HMSMLTLGGVRQRNSVA,QMTTREN,QQYDHLPLS,10 nM,6 of 6,0 of 18
KLSGSVCMLSRNDNSVA,DASTRES,QQYHRLPLS,8.7 nM,6 of 6,1 of 18
SMSWAHFNGDNWKNSIA,DATHLAY,QQYSRLPIT,4.5 nM,6 of 6,1 of 18
KITQMFTGESHNKNSIA,QMTTREG,QQYHRLPLS,18 nM,6 of 6,0 of 18
KLPLATMQESVSKNNVA,ELSTRGN,QQYHRLPLS,6.0 nM,6 of 6,3 of 18
QLYAVQDMTTKNSNSVA,EQSTREN,QQYHRLPLS,8.2 nM,6 of 6,1 of 18
KVNGLMNIEQMNSKSVA,QSSTRLN,QQYHRLPLS,6.3 nM,6 of 6,1 of 18
TISQMFLGESRNRNSVA,QASTRPS,QSYDRLPLS,6.3 nM,6 of 6,2 of 18
MFSQSVMTGSFYRNSVA,QTSTREK,QQYDRLPLS,1.3 nM,6 of 6,0 of 18
MISQLMNMGQFAINSVA,QATIRNN,QQYDRLPLI,170 nM,4 of 6,1 of 18
KLALVTGTEKVIGNNVA,EMETRER,QQYNRLPLA,3.2 nM,6 of 6,1 of 18
KLDTEWLYGKRNKNSVA,QASLRES,QQYHRLPLS,2.2 nM,6 of 6,0 of 18
TISYSAMLTGLNRNSVA,QAEERLE,QQYNRLPLS,7.4 nM,6 of 6,0 of 18
MAYGGDMLESVTRNSVA,NAETRAN,QDYHRLPLS,1.5 nM,6 of 6,2 of 18
MLDEYQMYDAANLNAIA,DANCTMP,QQYYSLPLS,29 nM,6 of 6,1 of 18
KFMYSGEYQMHEQNNIA,HGNIKTV,QQYFRLPIY,2.6 nM,6 of 6,0 of 18
KQSQSEGGESRNMNSVA,HASQRES,QQYHRLPLS,1.0 nM,6 of 6,1 of 18
KIEWYPMENRLTISAIA,EASTIYQ,QQYMHLPLS,no signal,0 of 6,0 of 18
NLVQEKSVGDYNAGNVA,AGNQLSV,QQYNRLPLI,1.4 nM,6 of 6,0 of 18
HMSMLTLMGMRQRNSVA,QMTMREN,QQYDRLPLA,38 nM,6 of 6,0 of 18
KLSFSWWMESRNKNNVA,HASKRES,QQYHRLPLS,5.9 nM,6 of 6,1 of 18
KLGQMTAIESQNLNSVA,QMDTRES,QQYHRLPLS,1.6 nM,6 of 6,1 of 18
KLMQLGHYESRNANNVA,NASQREQ,QQYHRLPLS,490 pM,6 of 6,0 of 18
TISTSALYESTNKNSVA,ELTTRGS,QQYERLPLS,19 nM,2 of 6,0 of 18
KVDSAVLYEQRNKNSVA,DASQRES,QQYHRLPLS,400 pM,6 of 6,2 of 18
HLQEQSFMGQKDYSSMA,NTECKYN,QQYARLPLM,6.2 nM,6 of 6,1 of 18
KLSMMVDYVSATHSSVA,QTSTREE,QQYHRLPLS,5.2 nM,6 of 6,0 of 18
SMIPFDNAIGKGTNNIA,HVSVRAS,QQYARLPLV,5.4 nM,6 of 6,4 of 18
KLQQQVQYESRNWNSVA,NASYRQS,QQYHRLPLS,84 nM,1 of 6,1 of 18
TISNSFMMENQFKNSVA,QASTRED,QCYDRLPLS,13 nM,2 of 6,0 of 18
KIMQSLNYEQFNVSNVA,GQETREQ,QSYHRLPLS,12 nM,6 of 6,2 of 18
KFMGSMLYESRMENSVA,NASQRES,QQYHRLPLS,1.2 nM,6 of 6,1 of 18
HIDTINRGEDMKQDPIA,QADHREQ,QQYFQLPLI,18 nM,6 of 6,0 of 18
MISQMYNMGQFAINSVA,QASIRND,QQYDRLPLA,18 nM,6 of 6,2 of 18
KLDQLVDEESRNKNAVA,EASTRES,QQYHRLPLS,3.3 nM,6 of 6,1 of 18
KLSMTYRFETEEKNSIA,ELVTRMS,QQYHRLPLS,3.3 nM,6 of 6,0 of 18
KISISHQVESINKSNVA,EMVTRES,QQYDRLPLS,23 nM,6 of 6,0 of 18

Data: MIT Lincoln Laboratory AlphaSeq set, Li et al. 2023, doi:10.1038/s41467-023-39022-2, as distributed in FLAb.